Rows were chosen to be rich in hits. Some 1.1% of all compounds tested hit in one or more screens of this group.
TrxR1 substrate = substrates of rat thioredoxin reductase 1; Potency, µM (series often up to 114 µM), for the others: at the highest dose activity change, negative = substrate turnover; purified TrxR1 substrate turnover, NADPH consumption readout; O89049; AID 588456; hit rate 0.01% among 390,000; note: potency is the fitted concentration of half-maximal effect; % is set by controls: 0 for no effect and ±100 for the full control effect; nearly all actives have a fitted effect of over 50% in size
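Rat TrxR1, dispensed at 90 nM, was prereduced with 400 uM NADPH (final) for 5 min at ~22 deg C, then incubated with compound 15 min before 400 uM selenite. A first-read NADPH fluorescence drop versus no-compound background flagged substrates.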
GALK inh = inhibitors of human galactokinase. P51570. Purified GALK, Kinase-Glo residual ATP luminescence. Potency, µM (doses to about 57.5 µM), without a hit: at the highest dose activity change, negative = inhibition, actives largely listed as inhibitors. hit rate 0.007% among 270,000. AID 1868; note: potency is the fitted concentration of half-maximal effect; % is set by controls: 0 for no effect and ±100 for the full control effect
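The enzyme phosphorylates galactose (100 uM) using ATP (35 uM); inhibition is detected as higher residual ATP, quantified by bioluminescence after 1 h reaction at room temperature, pH 8.0.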
PINK1 expr mod = changes PINK1 expression; PINK1 immunofluorescence, high-content cytometry, 24 h; Potency, µM (titrated, usually from 76.6 µM), for the others: at the highest dose activation (PINK1 increase), hits mostly activators; hit rate 0.2% among 410,000; active = well fitted activation curve with a large enough effect; inconclusive = small, poorly fitted or top-dose-only effect; cell line not stated here; note: potency is the fitted concentration of half-maximal effect; % of control where 0% means no effect; nearly all actives have a fitted effect of over 65% in size
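Measures PINK1 amount and localization on or inside mitochondria by immunofluorescence. Stable cells get compounds at 5 concentrations for 24 hours before fixation and staining; CCCP controls included.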
rTrxR1 inhibitor = inhibitors of rat thioredoxin reductase 1 | O89049 | recombinant rTrxR1, NADPH fluorescence consumption, selenite substrate | Potency, µM (titrated, usually from 114 µM), for the others: at the top dose activity change, negative = inhibition, actives largely listed as inhibitors | hit rate 1% among 390,000; note: potency is the fitted concentration of half-maximal effect; % is set by controls: 0 for no effect and ±100 for the full control effect; nearly all actives have a fitted effect of over 65% in size
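Rat TrxR1 (90 nM in the dispensed reagent) was pre-reduced with 400 uM NADPH for 5 min at room temperature, then incubated with compound for 15 min. After 400 uM selenite was added, NADPH fluorescence (Ex 340/Em 450 nm) was followed for 8 min.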
miR-21 reporter = raises the signal of a miR-21 reporter; Potency, µM (doses to about 38.3 µM), inactives show top-dose reporter change, positive = more light; HeLa miR-21 FLuc reporter, luciferase, 48 h; AID 2288; 340,000 tested, under 10 active; active = well fitted rising curve with a large enough effect; inconclusive = small, poorly fitted or top-dose-only effect; inactive = no such curve, though single readings can be large or run the other way;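 further: % of control where 0% means no effect; miR-21 action dims this reporter so a rising signal means less miR-21 action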
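Compounds were titrated across several concentrations (up to approximately 40 uM) and incubated 48 hours with HeLa miR-21-FLuc reporter cells (miR-21 target sequence downstream of FLuc, endogenous miR-21). Readout was firefly luciferase luminescence after lytic detection reagent.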
* hit, by the source's call; ? = inconclusive; nt = not tested or not shown; ! = repeats disagree; [ ] = remark or other dose. Unless noted, calls come from the whole dose curve; as a rule, active = well fitted curve in the direction sought with a large enough effect; inconclusive = small, poorly fitted or top-dose-only effect, or another doubt; inactive = no such curve, though single readings can be large; an effect the other way counts as inactive or inconclusive.

nr	molecule	GALK inh	PINK1 expr mod	TrxR1 substrate	rTrxR1 inhibitor	miR-21 reporter
1	Cc1cccc(CSc2cn(CC(=O)N3CCCCC3)c3ccccc23)c1	nt	0.2%	-14.0%	3.7%	-19.2%
2	Cn1nnnc1SCc1nc2scc(-c3ccc(Cl)cc3)c2c(=O)[nH]1	-0.5%	39.8µM*	9.9%	22.8%	-0.5%
3	Cn1nnnc1SCc1nc2scc(-c3ccccc3)c2c(=O)[nH]1	-2.4%	0.8%	-1.6%	-8.5%	-1.6%
4	C=C1CN(CC(=O)OC)S(=O)(=O)c2ccccc21	2.6%	-1.6%	6.4%[57.1 µM]	?	1.4%
5	C=C1CN(Cc2ccccc2)S(=O)(=O)c2ccccc21	-2.1%	0.4%	-1.1%	28.2µM*!	-1.5%
6	CCOC(=O)C1CCCN(C(=O)c2c(C)nn(-c3ccc(F)cc3)c2-n2cccc2)C1 (stereo not drawn)	nt	1.9%	-1.8%	12.0%	12.0%
7	CCN(c1ccc(OC)cc1)S(=O)(=O)c1ccc2[nH]c3c(c2c1)CCCCC3	nt	25.1µM*	0.8%	16.4%	29.7%
8	CCN(Cc1ccccc1)S(=O)(=O)c1ccc2[nH]c3c(c2c1)CCCCC3	nt	?	6.0%	15.2%	19.9%
9	Fc1cccc(NC(=S)NC2CCCCCCC2)c1	-3.7%	15.8µM*	-3.6%	12.8%	7.2%
10	NS(=O)(=O)c1ccc(NC(=S)NC2CCCCCC2)cc1	-0.1%	0.9%	-4.9%	15.8µM*	-19.5%
11	NS(=O)(=O)c1ccc(NC(=S)NC2CCCC2)cc1	1.0%	3.2%	4.0%	6.8%	-5.0%
12	FC(F)(F)c1cccc(NC(=S)NC2CCCC2)c1	2.0%	?	5.3%	2.4%	?
13	O=C(CCNS(=O)(=O)c1ccc(Br)cc1)NC1CCCCC1	-0.4%	-0.6%	0.9%	2.1%	-1.2%
14	O=S(=O)(NC(=S)NC1CCCCC1)c1ccc(Br)cc1	-3.6%	2.9%	13.5%	2.82µM*	-0.8%
15	CCc1ccc(OCC(=O)N(Cc2ccc(C)cc2)Cc2ccco2)cc1	nt	0.1%	-4.2%	-9.9%	11.3%
16	Cc1cc(C=Nc2ccc(/C=C/c3ccnc4ccccc34)cc2)ccc1N(C)C	nt	-0.6%	-9.7%	-4.5%	nt
17	CCn1c(CNC(=O)c2ccc(OC)cc2)nnc1SCC(=O)Nc1cccc(C)c1	nt	2.4%	9.5%	12.6%	-7.0%
18	COCCCCOc1cc2nc(N3CCCN(C)CC3)nc(NC3CCN(C)CC3)c2cc1OC	nt	-0.3%	138.5%	-33.4%	nt
19	COc1ccc(NC(=O)CN(C)CC(=O)c2c(C)[nH]c3ccccc23)cc1	nt	6.0%	-0.1%	22.4µM*	nt
20	COc1cccc(NC(=O)CN(C)CC(=O)c2c(C)[nH]c3ccccc23)c1	nt	4.6%	-2.0%	79.4µM*	nt
21	COc1cccc(NC(=O)CN(C)CC(=O)NCc2ccc(F)cc2)c1	nt	-0.5%	7.7%[57.1 µM]	6.6%[2.29 µM]	nt
22	COc1cc2nc(NC(=O)c3ccc(S(=O)(=O)N4CCCC4)cc3)sc2cc1OC	nt	5.5%	5.9%[57.1 µM]	39.9%[57.1 µM]	0.2%
23	O=C(O)c1cccc(N2C(=O)c3cc([N+](=O)[O-])cc4cc([N+](=O)[O-])cc(c34)C2=O)c1	4.1%	0.8%	-17.3%	11.2µM*	20.1%
24	O=C(O)c1cccc(N2C(=O)c3cccc4cccc(c34)C2=O)c1	-6.8%	0.1%	1.6%[57.1 µM]	-15.2%[57.1 µM]	-3.8%
25	Cc1ccc(C2=NC(C(F)(F)F)(C(F)(F)F)c3c(n(-c4ccc(F)cc4)c(=O)[nH]c3=O)N2)cc1	-2.0%	39.8µM*	23.8%	?	29.4%
26	O=c1[nH]c(=O)n(-c2ccc(F)cc2)c2c1C(C(F)(F)F)(C(F)(F)F)N=C(c1ccc(F)cc1)N2	0.2%	10µM*	1.5%	4.3%	10.0%
27	Oc1cc2c(cc1C(c1ccc(Br)cc1)N1CCCC1)OCO2 (stereo not drawn)	-4.4%	-0.5%	-17.8%[57.1 µM]	2.51µM*	-3.0%
28	O=S(=O)(NCC(c1ccc2c(c1)OCO2)N1CCOCC1)c1ccc(Br)cc1 (stereo not drawn)	nt	-0.6%	4.2%[57.1 µM]	5.0%[57.1 µM]	nt
29	CCOC(=O)CSc1nnc(NCC(=O)OC(C)C)c(=O)[nH]1	-0.2%	2.2%	-3.4%[57.1 µM]	1.78µM*	-2.8%
30	COc1cc(=O)n2c(c1C(=O)N(C)Cc1nonc1C)CCN(Cc1cc(C)ccc1C)CC2	nt	0.6%	nt	nt	nt
31	C=CCn1c(O)c(N=NC(=O)CNC(=O)/C=C/c2ccco2)c2ccccc21	1.0%	-3.6%[38.3 µM]	-1.7%	14.1µM*	-15.0%

Arranged by the number under GALK inh (falling): some entries from above.
| item | compound | GALK inh |
| --- | --- | --- |
| 26 | O=c1[nH]c(=O)n(-c2ccc(F)cc2)c2c1C(C(F)(F)F)(C(F)(F)F)N=C(c1ccc(F)cc1)N2 | 0.2% |
| 29 | CCOC(=O)CSc1nnc(NCC(=O)OC(C)C)c(=O)[nH]1 | -0.2% |
| 27 | Oc1cc2c(cc1C(c1ccc(Br)cc1)N1CCCC1)OCO2 (stereo not drawn) | -4.4% |

Full records as entered above. Order of values: GALK inh | PINK1 expr mod | TrxR1 substrate | rTrxR1 inhibitor | miR-21 reporter
Oc1cc2c(cc1C(c1ccc(Br)cc1)N1CCCC1)OCO2 (stereo not drawn) across the screens: -4.4% | -0.5% | -17.8%[57.1 µM] | 2.51µM* | -3.0%
O=c1[nH]c(=O)n(-c2ccc(F)cc2)c2c1C(C(F)(F)F)(C(F)(F)F)N=C(c1ccc(F)cc1)N2 across the screens: 0.2% | 10µM* | 1.5% | 4.3% | 10.0%

Screening data deposited in PubChem BioAssay by National Center for Advancing Translational Sciences (NCATS).
